Values of other authors, collected in patent US12714725B2, “Stabilization of selenite in a nutritional solution by dissolved oxygen” (BAXTER INTERNATIONAL INC., priority 2019, dated 2026).

Settings: cited from earlier work

Substance: iron chloride [Fe]
- Chemical form; Solubility in water: 920 g/L

Substance: manganese chloride [Mn]
- Chemical form; Solubility in water: 634 g/L
